Assay results as given in patent publication US20150164762A1, “USE OF ETHANOLAMINE PHOSPHATE” (priority 2012, published 2015).

Tested on: BEAS-2B
Test: Proliferative effects of EP and its metabolic derivatives (WST-8)
Type: cell-based, human

With `OCCN(CCO)CCO` the “animal cell proliferation without serum or growth factors” value was “not obtained”.
